In article PMC9107402, “Evaluation of CYP2C19 activity using microdosed oral omeprazole in humans” (European Journal of Clinical Pharmacology, 2022):

Tests used:
[1] = system: CYP2C19; conditions: human, in vivo
Experimental: This was an open-label clinical trial with fixed sequence design consisting of a total of seven inpatient study days and eight short visits for each participant.
The CYP2C19 perpetrator fluconazole (Fluconazol HEXAL® 200 mg, HEXAL) was given for 5 days in oral doses of 400 mg on day 1 and 200 mg on days 2 to 5. […] A diary was used to ensure correct intake of fluconazole and rifampicin at home.
Blood samples were centrifuged for 10 min at 2500 g and 4 °C, and separated plasma was distributed into 4 aliquots, each stored at − 20 °C until analysis.
The statistical analysis was performed using Prism 8.4 (GraphPad Software Inc., La Jolla, CA, USA).

[2] = system: CYP2C19; assay: Omeprazole hydroxylation index (molar ratio omeprazole/5-OH-omeprazole in plasma at 3 h); assay type: in vivo, human; conditions: for hydroxylation index, factor of variation / hydroxylation index, range: alone and during fluconazole and rifampicin

COc1ccc2[nH]c([S+]([O-])Cc3ncc(C)c(OC)c3C)nc2c1 (stereo not drawn) [omeprazole]
relative bioavailability (Frel) of the microdose [1]: 1.02 | VZ ([1]; po, 100 ug): 28.3 L | hydroxylation index, factor of variation ([2]; 100 µg omeprazole): 419 | hydroxylation index, range ([2]; 100 µg omeprazole): 0.2600–108.9 | omeprazole hydroxylation index ([2]; 100 µg omeprazole, baseline, All (n = 20), geometric mean): 1.26 | omeprazole hydroxylation index ([2]; 100 µg omeprazole, baseline, EM (n = 6)): 1.20 | omeprazole hydroxylation index ([2]; 100 µg omeprazole, baseline, IM (n = 6)): 1.18 | omeprazole hydroxylation index ([2]; 100 µg omeprazole, baseline, PM (n = 1)): 22.8 | omeprazole hydroxylation index ([2]; 100 µg omeprazole, baseline, UM (n = 7)): 0.92 | omeprazole hydroxylation index ([2]; 100 µg omeprazole, fluconazole, All (n = 20), geometric mean): 49.3* | omeprazole hydroxylation index ([2]; 100 µg omeprazole, fluconazole, EM (n = 6)): 58.4 | omeprazole hydroxylation index ([2]; 100 µg omeprazole, fluconazole, IM (n = 6)): 49.2 | omeprazole hydroxylation index ([2]; 100 µg omeprazole, fluconazole, PM (n = 1)): 65.1 | omeprazole hydroxylation index ([2]; 100 µg omeprazole, fluconazole, UM (n = 7)): 41.0 | omeprazole hydroxylation index ([2]; 100 µg omeprazole, rifampicin, All (n = 20), geometric mean): 0.55 | omeprazole hydroxylation index ([2]; 100 µg omeprazole, rifampicin, EM (n = 6)): 0.51 | omeprazole hydroxylation index ([2]; 100 µg omeprazole, rifampicin, IM (n = 6)): 0.54 | omeprazole hydroxylation index ([2]; 100 µg omeprazole, rifampicin, PM (n = 1)): 3.70 | omeprazole hydroxylation index ([2]; 100 µg omeprazole, rifampicin, UM (n = 7)): 0.41 | hydroxylation index, factor of variation ([2]; 20 mg omeprazole): 278 | hydroxylation index, range ([2]; 20 mg omeprazole): 0.1660–46.22 | omeprazole hydroxylation index ([2]; 20 mg omeprazole, baseline, All (n = 20), geometric mean): 2.47 | omeprazole hydroxylation index ([2]; 20 mg omeprazole, baseline, EM (n = 6)): 2.34 | omeprazole hydroxylation index ([2]; 20 mg omeprazole, baseline, IM (n = 6)): 2.31 | omeprazole hydroxylation index ([2]; 20 mg omeprazole, baseline, PM (n = 1)): 21.7 | omeprazole hydroxylation index ([2]; 20 mg omeprazole, baseline, UM (n = 7)): 2.0 | omeprazole hydroxylation index ([2]; 20 mg omeprazole, fluconazole, All (n = 20), geometric mean): 28.7* | omeprazole hydroxylation index ([2]; 20 mg omeprazole, fluconazole, EM (n = 6)): 29.8 | omeprazole hydroxylation index ([2]; 20 mg omeprazole, fluconazole, IM (n = 6)): 36.6 | omeprazole hydroxylation index ([2]; 20 mg omeprazole, fluconazole, PM (n = 1)): 44.0 | omeprazole hydroxylation index ([2]; 20 mg omeprazole, fluconazole, UM (n = 7)): 21.8 | omeprazole hydroxylation index ([2]; 20 mg omeprazole, rifampicin, All (n = 20), geometric mean): 0.50* | omeprazole hydroxylation index ([2]; 20 mg omeprazole, rifampicin, EM (n = 6)): 0.55 | omeprazole hydroxylation index ([2]; 20 mg omeprazole, rifampicin, IM (n = 6)): 0.47 | omeprazole hydroxylation index ([2]; 20 mg omeprazole, rifampicin, PM (n = 1)): 5.46 | omeprazole hydroxylation index ([2]; 20 mg omeprazole, rifampicin, UM (n = 7)): 0.32

Marks after values point to notes of the source that are not given here.
